Test results: US9676793B2, “Co-crystals of 5-amino-2-oxothiazolo[4,5-d]pyrimidin-3(2H)-yl-5-hydroxymethyl tetrahydrofuran-3-yl acetate and methods for preparing and using the same” (Hoffmann-La Roche Inc., priority 2014, dated 2017)

Tested on: HBV
Conditions: for EC50: HBV infected HepaRG cell assay

Row | Substance | % inhibition ± SD, HBV DNA (n = 4) (55.6 pM) [% inhibition] | % inhibition ± SD, HBsAg (n = 4) (55.6 pM) [% inhibition] | % inhibition ± SD, HBV DNA (n = 4) (166.7 pM) [% inhibition] | % inhibition ± SD, HBsAg (n = 4) (166.7 pM) [% inhibition] | % inhibition ± SD, HBV DNA (n = 4) (500 pM) [% inhibition] | % inhibition ± SD, HBsAg (n = 4) (500 pM) [% inhibition] | EC50 (read-out: EC50 against HBV DNA secretion) [nM] | EC50 (read-out: EC50 against secretion of HBsAg) [nM]
1 | Pegasys: pegylated interferon-alpha 2a, positive control [reference compound] | 56.5 ± 17.2 | 25.9 ± 4.2 | 67.1 ± 20.3 | 33.1 ± 10.3 | 76.9 | 46.0 | – | –
2 | Roferon-A: IFN-alpha 2a [reference compound] | – | – | – | – | – | – | 0.001 ± 0.0003 | 0.033 ± 0.022

Where two headings read alike, the source gives them in different places.
